{"source": "patent US20190076384A1", "about": "“METHODS FOR TREATING UREA CYCLE DISORDERS” (priority 2017, published 2019)", "tested_on": "CYP3A4/5", "type": "in vitro ADME, human", "conditions": "in vitro; testosterone 6-hydroxylase activity", "data": [{"substance": "phenylbutyrate [PBA]", "values": [{"measurement": "kind of inhibition of CYP3A4/5", "result": "reversible inhibitor"}]}]}
